Data published in publication PMC7203973 (ACS Omega, 2020).

Tests used:
[1] = cited from earlier work
RBC partitioning = type: in vitro ADME; conditions: rat blood, 1000 nM, 60 min

In the case of `CC(C)NC[C@H](O)COc1cccc2ccccc12` (racemic) [propanolol], the “blood-to-plasma ratio (KRBC/Plasma), reported in the literature” value [1] is listed as 1.0 ± 0.2 and the “blood-to-plasma ratio (KRBC/Plasma)” value (RBC partitioning) is listed as 0.90 ± 0.03.
